This passage reports Kd results from patent US11691963B2, “6-heteroaryloxy benzimidazoles and azabenzimidazoles as JAK2 inhibitors” (Ajax Therapeutics, Inc., priority 2020, dated 2023).

Sequences of proteins named here, by UniProt entry; tags and fusion partners are left off. Residues count along the entry.
UniProt O60674, 849-1124 Y1007F/Y1008F: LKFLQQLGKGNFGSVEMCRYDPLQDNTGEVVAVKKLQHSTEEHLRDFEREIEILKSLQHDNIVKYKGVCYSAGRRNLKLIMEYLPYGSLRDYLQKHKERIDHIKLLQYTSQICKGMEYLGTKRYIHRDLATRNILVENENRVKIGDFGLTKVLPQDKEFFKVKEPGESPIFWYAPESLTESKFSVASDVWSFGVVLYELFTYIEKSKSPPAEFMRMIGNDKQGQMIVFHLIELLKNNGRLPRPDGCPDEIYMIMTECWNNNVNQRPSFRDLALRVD

This experiment concerns the target JAK2 (JH1domain-catalytic, Y1007F,Y1008F) kinase (Homo sapiens (Human), UniProt O60674, Y1007F/Y1008F). The settings on record: read-out: JAK2 Kd.
The mark [1] stands for this setting: JAK2 JH1 domain-catalytic, Y1007F,Y1008F, qPCR readout.

Read-outs that look alike come from different tables or passages of the source. Bounds are passed on as bounds.

For `CC(=O)Nc1cc(Oc2cnc3nc(Nc4cc(C(C)(C)C#N)n([C@H]5CCOC5)n4)n(C)c3c2C(F)F)ccn1` [Example I-161, (S)—N-(4-((2-((5-(2-cyanopropan-2-yl)-1-(tetrahydrofuran-3-yl)-1H-pyrazol-3-yl)amino)-7-(difluoromethyl)-1-methyl-1H-imidazo[4,5-b]pyridin-6-yl)oxy)pyridin-2-yl)acetamide], under setting [1], the Kd was less than 0.01 µM. Regarding `CC(=O)Nc1cc(Oc2cnc3nc(Nc4cc(C(C)(C)C)n([C@@H]5CCN(CCF)C5)n4)n(C)c3c2Cl)ccn1` [Example I-186, (R)—N-(4-((2-((5-(tert-butyl)-1-(1-(2-fluoroethyl)pyrrolidin-3-yl)-1H-pyrazol-3-yl)amino)-7-chloro-1-methyl-1H-imidazo[4,5-b]pyridin-6-yl)oxy)pyridin-2-yl)acetamide], the equilibrium dissociation constant (Kd) under setting [1] was less than 0.01 µM. `CC(=O)Nc1cc(Oc2ccc3nc(Nc4cc(C(C)(C)C)n(CC5COC5)n4)n(C)c3c2)ccn1` [Example I-31, N-(4-((2-((5-(tert-butyl)-1-(oxetan-3-ylmethyl)-1H-pyrazol-3-yl)amino)-1-methyl-1H-benzo[d]imidazol-6-yl)oxy)pyridin-2-yl)acetamide]: the Kd under setting [1] is less than 0.01 µM. For `CC(=O)Nc1cc(Oc2ccc3nc(Nc4cc(C(C)(C)C)on4)n(C)c3c2C)ccn1` [Example I-2, N-(4-((2-((5-(tert-butyl)isoxazol-3-yl)amino)-1,7-dimethyl-1H-benzo[d]imidazol-6-yl)oxy)pyridin-2-yl)acetamide], the dissociation constant (Kd) under setting [1] is less than 0.01 µM. As for `CC(=O)Nc1cc(Oc2cnc3nc(Nc4cc(C(C)(C)C)n([C@H]5CCOC5)n4)n(C)c3c2Cl)ccn1` [Example I-142, (S)—N-(4-((2-((5-(tert-butyl)-1-(tetrahydrofuran-3-yl)-1H-pyrazol-3-yl)amino)-7-chloro-1-methyl-1H-imidazo[4,5-b]pyridin-6-yl)oxy)pyridin-2-yl)acetamide], under setting [1], the dissociation constant Kd was less than 0.01 µM. Consider `CC(=O)Nc1cc(Oc2cnc3nc(Nc4cc(C(C)(C)C#N)n([C@@H]5CCOC5)n4)n(C)c3c2C(F)F)ccn1` [Example I-160, (R)—N-(4-((2-((5-(2-cyanopropan-2-yl)-1-(tetrahydrofuran-3-yl)-1H-pyrazol-3-yl)amino)-7-(difluoromethyl)-1-methyl-1H-imidazo[4,5-b]pyridin-6-yl)oxy)pyridin-2-yl)acetamide], for which, under setting [1], the Kd is less than 0.01 µM. For `CC(=O)Nc1cc(Oc2ccc3nc(Nc4cc(C5CC5)cn(C[C@H]5CCOC5)c4=O)n(C)c3c2)ccn1` (single isomer, unassigned) [Example I-66-a], under setting [1], the Kd is less than 0.01 µM. `CC(=O)Nc1cc(Oc2ccc3nc(Oc4cc(C5CC5)cn([C@H]5C[C@@H](O)C5)c4=O)n(C)c3c2)ccn1` [Example I-92, N-(4-((2-((5-cyclopropyl-1-((1s,3s)-3-hydroxycyclobutyl)-2-oxo-1,2-dihydropyridin-3-yl)oxy)-1-methyl-1H-benzo[d]imidazol-6-yl)oxy)pyridin-2-yl)acetamide]: the Kd lay in the range of 0.01 to 0.05 µM. For `CC(=O)Nc1cc(Oc2ccc3nc(Nc4cc(C(F)(F)F)cn(C)c4=O)n(C)c3c2C#N)ccn1` [Example I-55, N-(4-((7-cyano-1-methyl-2-((1-methyl-2-oxo-5-(trifluoromethyl)-1,2-dihydropyridin-3-yl)amino)-1H-benzo[d]imidazol-6-yl)oxy)pyridin-2-yl)acetamide], the Kd under setting [1] was less than 0.01 µM. On to `CC(=O)Nc1cc(Oc2ccc3nc(Nc4cc5n(n4)CCCC5(C)C)n(C)c3c2C#N)ccn1` [Example I-41, N-(4-((7-cyano-2-((4,4-dimethyl-4,5,6,7-tetrahydropyrazolo[1,5-a]pyridin-2-yl)amino)-1-methyl-1H-benzo[d]imidazol-6-yl)oxy)pyridin-2-yl)acetamide], for which, under setting [1], the dissociation constant (Kd) is less than 0.01 µM. As to `Cn1cc(C2CC2)cc(Nc2nc3ncc(Oc4ccnc(NC(=O)C5CC5)c4)c(Cl)c3n2C)c1=O` [Example I-197, N-(4-((7-chloro-2-((5-cyclopropyl-1-methyl-2-oxo-1,2-dihydropyridin-3-yl)amino)-1-methyl-1H-imidazo[4,5-b]pyridin-6-yl)oxy)pyridin-2-yl)cyclopropanecarboxamide], the Kd under setting [1] was less than 0.01 µM. Consider `CC(=O)Nc1cc(Oc2ccc3nc(Nc4cc(N5CCC5)cn(C(C)C)c4=O)n(C)c3c2)ccn1` [Example I-83, N-(4-((2-((5-(azetidin-1-yl)-1-isopropyl-2-oxo-1,2-dihydropyridin-3-yl)amino)-1-methyl-1H-benzo[d]imidazol-6-yl)oxy)pyridin-2-yl)acetamide], for which the Kd was greater than 5 µM. As to `CO[C@H]1C[C@@H](n2cc(Nc3nc4ccc(Oc5ccnc(NC(C)=O)c5)c(C)c4n3C)cc(C(F)(F)F)c2=O)C1` [Example I-57, N-(4-((2-((1-((1s,3s)-3-methoxycyclobutyl)-6-oxo-5-(trifluoromethyl)-1,6-dihydropyridin-3-yl)amino)-1,7-dimethyl-1H-benzo[d]imidazol-6-yl)oxy)pyridin-2-yl)acetamide], the equilibrium dissociation constant (Kd) under setting [1] lay within 0.05 to 1 µM. On to `Cn1c(Nc2cn(C3CCC3)c([C@@H]3CCOC3)n2)nc2ncc(Oc3ccnc(NC(=O)C4CC4)c3)cc21` (single isomer, unassigned) [Example I-198-b], for which the Kd under setting [1] was less than 0.01 µM. Regarding `CC(=O)Nc1cc(Oc2ccc3nc(Nc4cc(C(F)(F)F)n(CC5CCOCC5)n4)n(C)c3c2C#N)ccn1` [Example I-34, N-(4-((7-cyano-1-methyl-2-((1-((tetrahydro-2H-pyran-4-yl)methyl)-5-(trifluoromethyl)-1H-pyrazol-3-yl)amino)-1H-benzo[d]imidazol-6-yl)oxy)pyridin-2-yl)acetamide], the Kd under setting [1] was less than 0.01 µM. Consider “N-(4-((7-chloro-2-((1-((1s,3s)-3-methoxycyclobutyl)-5-(perfluoroethyl)-1H-pyrazol-3-yl)amino)-1-methyl-1H-imidazo[4,5-b]pyridin-6-yl)oxy)pyridin-2-yl)acetamide [Example I-159]”, for which the dissociation constant (Kd) was less than 0.01 µM. As for `CC(=O)Nc1cc(Oc2ccc3nc(Nc4cc(C(C)(C)C)n(C5CCOCC5)n4)n(C)c3c2)ccn1` [Example I-27, N-(4-((2-((5-(tert-butyl)-1-(tetrahydro-2H-pyran-4-yl)-1H-pyrazol-3-yl)amino)-1-methyl-1H-benzo[d]imidazol-6-yl)oxy)pyridin-2-yl)acetamide], under setting [1], the Kd was less than 0.01 µM. On to `CC(=O)Nc1cc(Oc2cnc3nc(Nc4cc(C(C)(C)C)n([C@H]5CCOC56CC6)n4)n(C)c3c2)ccn1` (single isomer, unassigned) [Example I-189-b], for which, under setting [1], the Kd was less than 0.01 µM. Take `CC(=O)Nc1cc(Oc2cnc3nc(Nc4cc(C(C)(C)C#N)n([C@@H]5CCOC5)n4)n(C)c3c2Cl)ccn1` [Example I-157, (R)—N-(4-((7-chloro-2-((5-(2-cyanopropan-2-yl)-1-(tetrahydrofuran-3-yl)-1H-pyrazol-3-yl)amino)-1-methyl-1H-imidazo[4,5-b]pyridin-6-yl)oxy)pyridin-2-yl)acetamide]: under setting [1], the dissociation constant (Kd) is less than 0.01 µM.

Turning to `CC(=O)Nc1cc(Oc2cnc3nc(Nc4cc(C(C)(C)C)n(C[C@H]5CCOC5)n4)n(C)c3c2C)ccn1` (single isomer, unassigned) [Example I-117-a], the Kd under setting [1] is less than 0.01 µM. With `CC(=O)Nc1cc(Oc2ccc3nc(Nc4cc(C5CC5)cn(C[C@@H]5CCC[C@H]5O)c4=O)n(C)c3c2)ccn1` (single isomer, unassigned) [Example I-75-a], under setting [1], the dissociation constant Kd is less than 0.01 µM. Regarding `CC(=O)Nc1cc(Oc2ccc3nc(Nc4cc(C5CC5)cn([C@H]5C[C@H](C#N)C5)c4=O)n(C)c3c2)ccn1` [Example I-74, N-(4-((2-((1-((1r,3r)-3-cyanocyclobutyl)-5-cyclopropyl-2-oxo-1,2-dihydropyridin-3-yl)amino)-1-methyl-1H-benzo[d]imidazol-6-yl)oxy)pyridin-2-yl)acetamide], the dissociation constant Kd under setting [1] fell in the range of 0.05 to 1 µM. Take `CC(=O)Nc1cc(Oc2ccc3nc(Nc4cc(C(F)(F)F)cn(C[C@@H]5COCCO5)c4=O)n(C)c3c2)ccn1` (single isomer, unassigned) [Example I-58-a]: under setting [1], the Kd is 0.01 to 0.05 µM. Regarding `CC(=O)Nc1cc(Oc2ccc3nc(N[C@H]4CC[C@H](C(C)(C)C)CC4)n(C)c3c2)ccn1` [Example I-51, N-(4-((2-(((1r,4r)-4-(tert-butyl)cyclohexyl)amino)-1-methyl-1H-benzo[d]imidazol-6-yl)oxy)pyridin-2-yl)acetamide], under setting [1], the dissociation constant Kd lay in the range of 1 to 5 µM. For the compound `CC(=O)Nc1cc(Oc2ccc3nc(Nc4cc(C5CC5)cn(Cc5ncco5)c4=O)n(C)c3c2)ccn1` [Example I-71, N-(4-((2-((5-cyclopropyl-1-(oxazol-2-ylmethyl)-2-oxo-1,2-dihydropyridin-3-yl)amino)-1-methyl-1H-benzo[d]imidazol-6-yl)oxy)pyridin-2-yl)acetamide], the Kd under setting [1] was less than 0.01 µM.

With `CC(=O)Nc1cc(Oc2ccc3nc(Nc4cc(C5CC5)cn(C)c4=O)n(C)c3c2)ccn1` [Example I-61, N-(4-((2-((5-cyclopropyl-1-methyl-2-oxo-1,2-dihydropyridin-3-yl)amino)-1-methyl-1H-benzo[d]imidazol-6-yl)oxy)pyridin-2-yl)acetamide], under setting [1], the Kd was less than 0.01 µM. With `Cn1c(Nc2cc(C(C)(C)C)n(C3CC(CO)(CO)C3)n2)nc2ncc(Oc3ccnc(NC(=O)C4CC4)c3)cc21` [Example I-200, N-(4-((2-((1-(3,3-bis(hydroxymethyl)cyclobutyl)-5-(tert-butyl)-1H-pyrazol-3-yl)amino)-1-methyl-1H-imidazo[4,5-b]pyridin-6-yl)oxy)pyridin-2-yl)cyclopropanecarboxamide], the Kd under setting [1] is less than 0.01 µM. On to `COCCC(=O)Nc1cc(Oc2cnc3nc(Nc4cc(C(C)(C)C)n([C@H]5CCOC5)n4)n(C)c3c2)ccn1` [Example I-119, (S)—N-(4-((2-((5-(tert-butyl)-1-(tetrahydrofuran-3-yl)-1H-pyrazol-3-yl)amino)-1-methyl-1H-imidazo[4,5-b]pyridin-6-yl)oxy)pyridin-2-yl)-3-methoxypropanamide], for which the dissociation constant Kd under setting [1] was less than 0.01 µM. The same measure, in the same setting: next, `CC(=O)Nc1cc(Oc2cnc3nc(Nc4cc(C(C)(C)C)n(C[C@@H]5CCN(CCF)C5)n4)n(C)c3c2C)ccn1` [Example I-124, (R)—N-(4-((2-((5-(tert-butyl)-1-((1-(2-fluoroethyl)pyrrolidin-3-yl)methyl)-1H-pyrazol-3-yl)amino)-1,7-dimethyl-1H-imidazo[4,5-b]pyridin-6-yl)oxy)pyridin-2-yl)acetamide]: less than 0.01 µM.
